In ChEMBL document CHEMBL1145539, “Activity of daptomycin alone and in combination with rifampin and gentamicin against Staphylococcus aureus assessed by time-kill methodology” (2007):

Tested on: Staphylococcus aureus

**Q.** How did the MIC turn out when GENTAMICIN was run?
**A.** 0.5 µg/mL
